{
  "sequences": {"note": "Chains of the proteins cited; added tags and fusions are not shown. Residues count along the entry.", "UniProt P05177, 2-516": "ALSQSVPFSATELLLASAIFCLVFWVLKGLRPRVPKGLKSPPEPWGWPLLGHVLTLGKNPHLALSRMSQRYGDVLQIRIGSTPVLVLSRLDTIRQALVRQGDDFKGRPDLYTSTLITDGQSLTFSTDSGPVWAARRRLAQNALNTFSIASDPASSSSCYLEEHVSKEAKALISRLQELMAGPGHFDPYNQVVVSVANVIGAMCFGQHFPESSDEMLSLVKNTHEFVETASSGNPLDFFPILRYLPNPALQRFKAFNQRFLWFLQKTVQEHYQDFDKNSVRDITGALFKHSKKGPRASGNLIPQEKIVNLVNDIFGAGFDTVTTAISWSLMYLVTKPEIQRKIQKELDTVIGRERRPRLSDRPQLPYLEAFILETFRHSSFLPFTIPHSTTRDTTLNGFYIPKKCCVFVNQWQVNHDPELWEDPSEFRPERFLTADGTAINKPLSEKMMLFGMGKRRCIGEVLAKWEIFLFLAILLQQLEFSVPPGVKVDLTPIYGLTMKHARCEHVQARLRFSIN"},
  "source": "paper PMC6695839",
  "about": "“Interspecies Variation in NCMN-O-Demethylation in Liver Microsomes from Various Species” (Molecules, 2019)",
  "biological_target": "CYP1A in human liver microsomes (HLM) (Homo sapiens, UniProt P05177)",
  "test": "Inhibition of NCMN-O-demethylation by CYP inhibitors in human liver microsomes",
  "conditions": "10 µM NCMN, 100 µM furafylline, 10 µM sulfaphenazole, 200 µM troleandomycin, 500 µM 1-ABT",
  "data": [
    {"smiles": "Cc1nc2c([nH]1)c(=O)n(C)c(=O)n2Cc1ccco1", "note": "[furafylline]", "values": [
      {"measurement": "Inhibition of the formation of NCHN", "value": "near completely"}
    ]}
  ]
}
